Assay results taken from BindingDB's records for PubMed 8301575 (Institut De Recherches Servier, 1994).

By UniProt entry, the sequences of proteins in these tests, tags left out.
UniProt P14842, whole entry: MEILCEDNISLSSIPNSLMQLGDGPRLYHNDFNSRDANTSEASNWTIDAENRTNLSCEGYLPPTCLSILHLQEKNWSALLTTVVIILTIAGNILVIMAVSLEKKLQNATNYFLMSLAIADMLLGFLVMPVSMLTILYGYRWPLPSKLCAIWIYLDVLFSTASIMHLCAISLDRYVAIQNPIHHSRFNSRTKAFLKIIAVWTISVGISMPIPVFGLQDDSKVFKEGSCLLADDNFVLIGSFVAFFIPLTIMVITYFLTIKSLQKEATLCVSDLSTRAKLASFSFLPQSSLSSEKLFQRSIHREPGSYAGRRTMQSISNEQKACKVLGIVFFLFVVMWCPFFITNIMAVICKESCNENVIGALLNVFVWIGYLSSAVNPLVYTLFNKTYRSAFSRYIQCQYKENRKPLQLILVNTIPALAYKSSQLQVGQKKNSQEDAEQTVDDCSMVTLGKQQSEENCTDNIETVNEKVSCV

Biological target: 5-hydroxytryptamine receptor 2A (Rattus norvegicus, UniProt P14842)

Compound: O=C(CCCN1CCC2(CC1)C(=O)NCN2c1ccccc1)c1ccc(F)cc1 [8-[4-(4-fluorophenyl)-4-oxidanylidene-butyl]-1-phenyl-1,3,8-triazaspiro[4.5]decan-4-one]
- Ki: 0.43 nM
